Values quoted from earlier work, collected in patent publication US20250341526A1, “NOVEL DYES” (Quantum-Si Incorporated, priority 2024, published 2025).
Entries after “also recorded” stand apart in the source; their conditions may differ.

Test system: amino acid at a terminal position of a polypeptide
Conditions: Table 2; amino acid at terminal position (phosphotyrosine also internal); inferred from literature and/or demonstrated by the inventors; cited from earlier work

Substance: H. sapiens p62 protein: amino acid recognition protein, SEQ ID NO: 123
- Binding Pref.: K, R, H,; also recorded: W, F, Y
